Results from publication PMC3460729, “Innate immune properties of selected human neuropeptides against Moraxella catarrhalis and nontypeable Haemophilus influenzae” (BMC Immunology, 2012).

Tests used:
[1] = tested on: nontypeable H. influenzae NTHi3, NTHi6; conditions: 100 μM
Protocol: For the time kill assay from 0 to 1.5 h, overnight cultures of Mc and NTHi were inoculated into new medium and incubated under the relevant conditions until early log-phase (OD600 = 0.25–0.3). The bacteria were diluted in 10 mM sodium phosphate buffer, NaPB, (pH 7.4) containing 1% (w/v) BHI to obtain ~2 x 10^6 CFU/ml. […] After each time of incubation the suspensions were 10-fold serially diluted with 10 mM NaPB-1% BHI and 20 μl aliquots were plated in triplicate on BHI (M. catarrhalis) or HAEM (H. influenzae) agar plates. The plates were incubated overnight at 37°C in 5% CO2 conditions. Simultaneously, the incubation of bacteria in the presence of an appropriate diluent was included for positive control of bacterial growth. The colony counts and CFU/ml were calculated next day. The bactericidal activity of neuropeptides was expressed as survival ratios determined as the numbers of CFU after neuropeptide incubation divided by the numbers of CFU estimated from a control plate (time 0). All antimicrobial assays were performed at least two times in triplicate.

[2] = tested on: human PMNs stimulated with M. catarrhalis ATCC 25238; assay: M. catarrhalis-stimulated ROS generation by PMNs, luminol-dependent chemiluminescence; type: cell-based; conditions: 10^−8 M NP, nonopsonized M. catarrhalis; mean ± SD, n = 5-6 donors
Protocol: (§1) Polymorphonuclear leukocytes (PMNs) from healthy young adult volunteers were isolated from venous blood samples anticoagulated with Lithium-heparin (7.5 ml) by ficoll (Aqua-Med, Poland) density gradient centrifugation (2000 rpm/30 min), followed by hypotonic lysis of erythrocytes with a lysing buffer (0.83% NH4Cl, 0.1% KHCO3, EDTA, pH 7.4). After two washes (1400 rpm/10 min) in PBS, PMNs were resuspended to the final concentration of […] cells/ml in phagocytic buffer: HBSS with Ca^++ and Mg^++ supplemented with 1% HiFBS. The purity of granulocyte suspensions was checked using 15 μg/ml of acridine orange. […] Isolated PMNs were kept for 30 min at 37°C and 5% CO2 until used.
Reactive oxygen species (ROS) formation by PMNs was measured using luminol-dependent chemiluminescence assay (CL) in white flat-bottom 96-well microplates (NUNC, Denmark). The reaction mixture of total volume 200 μl in each well contained: 100 μl of PMN suspension in HBSS–Ca^++Mg^++ (10^5 cells/well), 40 μl of luminol (50 μM/well), 40 μl of fMLP (0.2 μM/well), 20 μl of particular NP (in the range 10^−12–10^−8 M/well). […] The maximal value of CL response curve was expressed as peak height (PHCL) for fMLP stimulant. In other cases the area under chemiluminescence curve (AUCCL) was calculated. […] Results were expressed as mean ± SD.

[3] = tested on: M. catarrhalis ATCC 25238, Mc5, Mc6; conditions: ATCC 25238, 3 h
Protocol: (§2) For the radial diffusion assay a mid-log phase bacteria were diluted to the concentration of ~ 1–2 × 10^6 CFU/ml in 10 ml of melted and cooled to 42°C, 1% agarose (w/v, molecular biology grade) in 10 mM sodium phosphate containing 1/100 dilution of full strength BHI and 0.02% (v/v) Tween 20 (Sigma). After vigorous mixing, the bacteria in the agarose were poured onto Petri plate forming under-layer in which 3 mm diameter sterile wells were cut. The wells were filled with serially diluted neuropeptides (5 μl) at concentrations ranging from 10^−6 M to 10^−3 M and plates were incubated for 3 h at 37°C to allow peptide diffusion. The plates were then overlaid with 10 ml of the buffered 1% agarose containing 6% BHI (w/v) and allowed to harden. […] The MIC value was determined as the x-axis intercept obtained from the relationship between the diameter of radial diffusion zones versus NP concentration. […] Polymyxin B was used as a positive control.

[4] = tested on: H. influenzae ATCC 49247, NTHi3, NTHi6; conditions: ATCC 49247, 3 h
Protocol: as §2

human PMNs = assay: fMLF-induced ROS generation by PMNs, luminol-dependent chemiluminescence; type: cell-based; conditions: for ROS release [% of control]: 0.2 μM fMLF, peak height PHCL, mean of three independent experiments
Protocol: as §1
Reactive oxygen species (ROS) formation by PMNs was measured using luminol-dependent chemiluminescence assay (CL) in white flat-bottom 96-well microplates (NUNC, Denmark). The reaction mixture of total volume 200 μl in each well contained: 100 μl of PMN suspension in HBSS–Ca^++Mg^++ (10^5 cells/well), 40 μl of luminol (50 μM/well), 40 μl of fMLP (0.2 μM/well), 20 μl of particular NP (in the range 10^−12–10^−8 M/well). In other experiments, the respiratory burst was triggered by phagocytosis of 40 μl heat killed (56°C/30 min) M. catarrhalis ATCC 25238 or H. influenzae ATCC 49247 at concentration of ½ of OD600 = 1 or OD600 = 1, respectively. […] The PMA stimulus at 0.1 μM final concentration was used as positive control of the relevant oxidative stress. The CL kinetics was measured at constant 37°C temperature using luminometer (Microlumat, LB96P, Berthold) and recorded as relative light units (RLU). Measuring conditions for fMLP were: interval (46 s), run time (up to 30 min). The conditions for bacterial and PMA stimulation were: interval (83 s), run time (up to 60 min). The maximal value of CL response curve was expressed as peak height (PHCL) for fMLP stimulant. In other cases the area under chemiluminescence curve (AUCCL) was calculated. Each sample was run in triplicate and the values were averaged. […] Results were expressed as mean ± SD.

CC(C)C[C@H](NC(=O)CNC(=O)[C@H](C)NC(=O)[C@H](CC(C)C)NC(=O)[C@H](CCCNC(=N)N)NC(=O)[C@H](Cc1c[nH]cn1)NC(=O)[C@@H](NC(=O)[C@@H](NC(=O)[C@@H]1CSSC[C@H](NC(=O)[C@H](C)N)C(=O)N[C@@H](CC(=O)O)C(=O)N[C@@H]([C@@H](C)O)C(=O)N[C@@H](C)C(=O)N[C@@H]([C@@H](C)O)C(=O)N1)C(C)C)[C@@H](C)O)C(=O)N[C@@H](CC(C)C)C(=O)N[C@@H](CO)C(=O)N[C@@H](CCCNC(=N)N)C(=O)N[C@@H](CO)C(=O)NCC(=O)NCC(=O)N[C@H](C(=O)N[C@H](C(=O)N[C@@H](CCCCN)C(=O)N[C@@H](CC(N)=O)C(=O)N[C@@H](CC(N)=O)C(=O)N[C@@H](Cc1ccccc1)C(=O)N[C@H](C(=O)N1CCC[C@H]1C(=O)N[C@H](C(=O)N[C@@H](CC(N)=O)C(=O)N[C@H](C(=O)NCC(=O)N[C@@H](CO)C(=O)N[C@@H](CCCCN)C(=O)N[C@@H](C)C(=O)N[C@@H](Cc1ccccc1)C(N)=O)C(C)C)[C@@H](C)O)C(C)C)C(C)C)C(C)C [CGRP, Calcitonin gene related peptide]
type of antibacterial effect [1]: bacteriostatic | increase of mean AUCCL [2]: 40.5 ± 22.3% | MIC [3]: > 132 µM | MIC [4]: > 132 µM | ROS release [% of control] (human PMNs; 10^-8 M NP): 266.41^a % of control | ROS release [% of control] (human PMNs; 10^-10 M NP): 164.35^a % of control | ROS release [% of control] (human PMNs; 10^-12 M NP): 153.47^b % of control | activation of respiratory burst of PMNs (human PMNs; neuropeptide alone, without stimulus): did not activate

Marks after values point to notes of the source that are not given here.
